Molecular target: skeletal RyR (RyR1) (Oryctolagus cuniculus, UniProt P11716)
Assay type: binding, rabbit
Conditions: estimate of purity of heavy SR vesicles

The chains behind the UniProt entries cited, without tags or fusion partners. Where a name states a change or a piece, a line headed by the entry shows the natural chain unless it says otherwise.
UniProt P11716: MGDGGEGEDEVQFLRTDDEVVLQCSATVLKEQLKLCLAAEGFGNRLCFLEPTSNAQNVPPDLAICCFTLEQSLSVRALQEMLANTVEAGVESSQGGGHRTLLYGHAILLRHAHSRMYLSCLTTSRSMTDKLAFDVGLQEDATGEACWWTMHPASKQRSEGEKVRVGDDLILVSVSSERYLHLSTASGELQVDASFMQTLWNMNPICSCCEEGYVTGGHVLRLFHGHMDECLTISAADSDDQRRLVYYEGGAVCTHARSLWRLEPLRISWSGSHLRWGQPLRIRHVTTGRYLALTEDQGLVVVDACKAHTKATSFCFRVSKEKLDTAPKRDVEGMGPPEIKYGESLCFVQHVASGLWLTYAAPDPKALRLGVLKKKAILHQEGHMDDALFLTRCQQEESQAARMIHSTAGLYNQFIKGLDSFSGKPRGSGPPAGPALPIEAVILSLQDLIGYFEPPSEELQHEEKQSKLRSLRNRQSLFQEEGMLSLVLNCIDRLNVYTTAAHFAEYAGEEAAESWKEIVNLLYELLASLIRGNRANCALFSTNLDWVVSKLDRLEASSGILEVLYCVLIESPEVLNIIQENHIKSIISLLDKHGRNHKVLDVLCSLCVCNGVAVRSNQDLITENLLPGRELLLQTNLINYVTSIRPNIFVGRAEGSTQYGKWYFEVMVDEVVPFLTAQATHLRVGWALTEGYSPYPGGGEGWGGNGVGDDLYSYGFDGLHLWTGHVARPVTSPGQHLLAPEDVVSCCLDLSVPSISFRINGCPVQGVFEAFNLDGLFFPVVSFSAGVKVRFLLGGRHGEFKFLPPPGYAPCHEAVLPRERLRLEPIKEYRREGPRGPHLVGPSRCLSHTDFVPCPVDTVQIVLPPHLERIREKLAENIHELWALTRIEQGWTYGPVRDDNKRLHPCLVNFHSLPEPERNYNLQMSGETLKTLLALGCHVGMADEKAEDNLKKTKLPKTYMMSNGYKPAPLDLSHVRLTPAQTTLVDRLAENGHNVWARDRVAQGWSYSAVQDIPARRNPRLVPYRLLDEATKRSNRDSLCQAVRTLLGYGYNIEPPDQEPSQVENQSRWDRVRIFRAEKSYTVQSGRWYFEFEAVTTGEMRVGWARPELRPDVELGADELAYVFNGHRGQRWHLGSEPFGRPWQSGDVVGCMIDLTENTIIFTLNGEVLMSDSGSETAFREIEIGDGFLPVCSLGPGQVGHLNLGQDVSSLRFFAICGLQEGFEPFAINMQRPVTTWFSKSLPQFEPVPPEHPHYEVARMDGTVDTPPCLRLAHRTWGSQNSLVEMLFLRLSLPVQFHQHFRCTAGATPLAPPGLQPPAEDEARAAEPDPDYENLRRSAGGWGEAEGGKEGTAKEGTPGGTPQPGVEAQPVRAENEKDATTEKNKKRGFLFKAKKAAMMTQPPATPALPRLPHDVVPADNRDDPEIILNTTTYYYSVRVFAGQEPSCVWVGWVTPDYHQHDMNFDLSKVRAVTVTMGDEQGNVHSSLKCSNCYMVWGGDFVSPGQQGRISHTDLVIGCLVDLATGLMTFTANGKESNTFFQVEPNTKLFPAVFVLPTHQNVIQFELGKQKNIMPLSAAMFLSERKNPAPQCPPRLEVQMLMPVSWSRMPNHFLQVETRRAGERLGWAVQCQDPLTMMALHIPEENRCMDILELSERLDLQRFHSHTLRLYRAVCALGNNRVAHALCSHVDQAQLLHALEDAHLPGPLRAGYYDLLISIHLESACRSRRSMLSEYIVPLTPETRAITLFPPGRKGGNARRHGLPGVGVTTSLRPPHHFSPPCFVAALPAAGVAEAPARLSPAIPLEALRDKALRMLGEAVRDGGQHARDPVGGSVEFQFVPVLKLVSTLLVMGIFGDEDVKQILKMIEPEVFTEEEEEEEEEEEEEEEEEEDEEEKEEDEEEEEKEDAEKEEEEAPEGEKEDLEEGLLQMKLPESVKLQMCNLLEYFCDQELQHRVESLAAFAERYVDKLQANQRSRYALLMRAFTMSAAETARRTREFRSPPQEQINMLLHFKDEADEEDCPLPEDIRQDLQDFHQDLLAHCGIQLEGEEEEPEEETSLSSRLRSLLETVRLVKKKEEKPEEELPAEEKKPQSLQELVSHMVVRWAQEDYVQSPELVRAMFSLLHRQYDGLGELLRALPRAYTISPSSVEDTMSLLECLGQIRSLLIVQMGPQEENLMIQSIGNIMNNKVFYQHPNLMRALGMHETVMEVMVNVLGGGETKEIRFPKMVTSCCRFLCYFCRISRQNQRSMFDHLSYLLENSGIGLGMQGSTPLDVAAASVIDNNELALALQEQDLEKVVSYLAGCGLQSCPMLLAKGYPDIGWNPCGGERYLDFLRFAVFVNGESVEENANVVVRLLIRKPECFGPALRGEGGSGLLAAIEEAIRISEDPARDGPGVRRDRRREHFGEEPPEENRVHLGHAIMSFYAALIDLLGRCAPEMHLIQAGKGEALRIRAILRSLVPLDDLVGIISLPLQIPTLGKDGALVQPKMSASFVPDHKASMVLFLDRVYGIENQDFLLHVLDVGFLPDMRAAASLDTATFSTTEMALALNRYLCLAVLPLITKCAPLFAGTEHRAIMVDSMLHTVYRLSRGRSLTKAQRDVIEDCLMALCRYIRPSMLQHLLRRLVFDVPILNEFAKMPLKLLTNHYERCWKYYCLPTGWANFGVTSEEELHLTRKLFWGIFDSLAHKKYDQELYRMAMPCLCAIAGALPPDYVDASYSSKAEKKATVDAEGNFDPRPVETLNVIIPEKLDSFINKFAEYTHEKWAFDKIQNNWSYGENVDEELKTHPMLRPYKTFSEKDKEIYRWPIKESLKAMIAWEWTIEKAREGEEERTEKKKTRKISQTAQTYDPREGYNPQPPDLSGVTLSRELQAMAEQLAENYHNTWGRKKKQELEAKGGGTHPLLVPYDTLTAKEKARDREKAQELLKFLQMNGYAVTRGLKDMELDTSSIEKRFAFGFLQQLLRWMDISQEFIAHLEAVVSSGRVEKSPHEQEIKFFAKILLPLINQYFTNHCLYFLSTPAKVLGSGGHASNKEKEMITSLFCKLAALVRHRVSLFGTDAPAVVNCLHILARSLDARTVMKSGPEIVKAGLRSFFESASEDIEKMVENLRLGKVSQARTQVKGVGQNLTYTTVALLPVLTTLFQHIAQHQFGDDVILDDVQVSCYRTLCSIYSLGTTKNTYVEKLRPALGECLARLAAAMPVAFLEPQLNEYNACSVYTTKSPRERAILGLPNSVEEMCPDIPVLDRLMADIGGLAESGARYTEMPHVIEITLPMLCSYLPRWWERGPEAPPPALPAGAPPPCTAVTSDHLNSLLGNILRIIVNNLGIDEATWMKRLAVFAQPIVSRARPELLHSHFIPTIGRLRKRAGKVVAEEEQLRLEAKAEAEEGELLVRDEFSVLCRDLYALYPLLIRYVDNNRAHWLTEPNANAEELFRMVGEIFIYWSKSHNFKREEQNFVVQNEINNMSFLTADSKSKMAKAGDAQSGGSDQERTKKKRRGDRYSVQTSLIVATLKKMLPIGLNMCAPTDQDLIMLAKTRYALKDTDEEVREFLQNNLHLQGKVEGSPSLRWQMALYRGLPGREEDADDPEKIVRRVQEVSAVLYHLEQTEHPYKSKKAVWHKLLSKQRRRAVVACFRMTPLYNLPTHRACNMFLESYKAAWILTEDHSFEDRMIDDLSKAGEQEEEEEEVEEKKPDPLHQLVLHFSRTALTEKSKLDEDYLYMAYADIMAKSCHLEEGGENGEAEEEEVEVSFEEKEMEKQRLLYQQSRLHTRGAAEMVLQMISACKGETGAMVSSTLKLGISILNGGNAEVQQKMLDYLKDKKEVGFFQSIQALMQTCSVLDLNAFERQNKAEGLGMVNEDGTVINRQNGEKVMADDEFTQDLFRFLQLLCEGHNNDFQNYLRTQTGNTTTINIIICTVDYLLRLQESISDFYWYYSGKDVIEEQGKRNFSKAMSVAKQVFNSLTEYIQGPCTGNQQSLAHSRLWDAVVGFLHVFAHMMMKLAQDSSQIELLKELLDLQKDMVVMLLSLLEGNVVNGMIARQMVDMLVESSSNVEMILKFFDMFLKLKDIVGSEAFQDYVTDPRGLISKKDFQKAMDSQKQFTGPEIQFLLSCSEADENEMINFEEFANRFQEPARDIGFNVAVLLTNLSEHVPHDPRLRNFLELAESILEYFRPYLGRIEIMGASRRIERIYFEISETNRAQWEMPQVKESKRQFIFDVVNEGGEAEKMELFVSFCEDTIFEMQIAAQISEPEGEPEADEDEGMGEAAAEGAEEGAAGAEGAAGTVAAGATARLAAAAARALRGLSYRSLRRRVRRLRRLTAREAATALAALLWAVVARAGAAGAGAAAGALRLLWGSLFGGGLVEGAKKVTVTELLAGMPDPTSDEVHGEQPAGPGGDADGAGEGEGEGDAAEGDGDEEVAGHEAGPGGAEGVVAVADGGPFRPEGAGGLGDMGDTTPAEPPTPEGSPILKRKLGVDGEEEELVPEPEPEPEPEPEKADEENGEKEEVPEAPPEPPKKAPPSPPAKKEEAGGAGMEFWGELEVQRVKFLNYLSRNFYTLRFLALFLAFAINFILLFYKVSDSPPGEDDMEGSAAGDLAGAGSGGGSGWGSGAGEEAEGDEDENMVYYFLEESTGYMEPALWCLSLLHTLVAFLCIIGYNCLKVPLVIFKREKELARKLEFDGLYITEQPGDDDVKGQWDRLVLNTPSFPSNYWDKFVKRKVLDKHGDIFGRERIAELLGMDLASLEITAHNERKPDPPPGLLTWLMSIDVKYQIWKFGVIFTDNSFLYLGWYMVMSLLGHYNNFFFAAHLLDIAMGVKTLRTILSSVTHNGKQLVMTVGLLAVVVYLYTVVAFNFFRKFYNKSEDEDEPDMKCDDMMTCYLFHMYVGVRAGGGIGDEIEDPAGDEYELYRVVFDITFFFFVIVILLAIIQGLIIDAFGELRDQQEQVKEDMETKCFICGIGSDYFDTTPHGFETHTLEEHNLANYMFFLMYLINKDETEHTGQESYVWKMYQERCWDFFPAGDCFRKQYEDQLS

[^3H]ryanodine
[3H]ryanodine binding of heavy SR vesicles: 10-15 pmoles/mg protein

— article PMC5329131 (Biochimica et biophysica acta, 2017)
